## OPERA 2.9 data: melting point values

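The OPERA project collected these measurements from public sources as training and test data for property models. One number stands for a compound and property, with no spread given. Conditions of the individual experiments are not part of the data. Where a salt, mixture or single isomer is drawn, the source does not say that exactly this form was tested. Unmarked limits or estimates from the upstream databases cannot be ruled out.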

The melting point is given in degrees Celsius.
Cells with "–" have no entry in this list.

melting point (°C),SMILES,name
67,ClCc1cnn(-c2ccccc2)c1,4-(chloromethyl)-1-phenyl-1H-pyrazole
183,NC(=O)N1CCCC(C(=O)O)C1 (stereo not drawn),1-Carbamoylpiperidine-3-carboxylic acid
181,O=C1N=C(O)CCC1N1C(=O)C2CCCCC2C1=O (stereo not drawn),–
61,COc1ccc(C=O)c(Cl)c1,2-chloro-4-methoxybenzaldehyde
94,CCNC(=O)c1ccccc1N,2-amino-N-ethylbenzamide
166,CC(C)C(NC(=O)COc1ccccc1)C(=O)O (stereo not drawn),3-methyl-2-[(phenoxyacetyl)amino]butanoic acid
116,CC(Cl)C(=O)Nc1cccc([N+](=O)[O-])c1 (stereo not drawn),2-chloro-N-(3-nitrophenyl)propanamide
184.5,O=C1C=CC=CC1=C1C=CNO1,"Phenol, 2-(5-isoxazolyl)-"
77,Fc1ccc(C(c2ccc(F)cc2)C(Cl)Cl)cc1,"1,1'-(2,2-Dichloroethane-1,1-diyl)bis(4-fluorobenzene)"
-4.5,OCCCC(F)(F)C(F)(F)C(F)(F)C(F)(F)C(F)(F)C(F)(F)F,3-(Perfluorohexyl)propanol
53,Fc1ccc(-c2nc(CCl)no2)cc1,"3-(chloromethyl)-5-(4-fluorophenyl)-1,2,4-oxadiazole"
218,CC(=O)Nc1ccc2nc(N)sc2c1,N-(2-Amino-benzothiazol-6-yl)-acetamide
89,COc1ccc(-c2cc(CBr)on2)cc1,5-(bromomethyl)-3-(4-methoxyphenyl)isoxazole
213,Nc1ccc(C(=O)Nc2cccnc2)cc1,4-amino-n-pyridin-3-ylbenzamide
260,Nc1nc2ccc(S(N)(=O)=O)cc2s1,"2-Amino-1,3-benzothiazole-6-sulfonamide"
73,c1ccc(C2NCCn3cccc32)cc1 (stereo not drawn),"1-phenyl-1,2,3,4-tetrahydropyrrolo[1,2-a]pyrazine"
130,CC(=O)N1CCCC(C(=O)O)C1 (stereo not drawn),1-Acetyl-3-piperidinecarboxylic acid
91,CC1=NN(c2ccccc2)C(=O)C1C(=O)c1ccccc1 (stereo not drawn),4-Benzoyl-3-methyl-1-phenylpyrazol-5-one
28,CCCCCCCCCCCCSCc1cc(C)c(O)c(CSCCCCCCCCCCCC)c1,"Phenol, 2,4-bis[(dodecylthio)methyl]-6-methyl-"
220,CCCCCCC(O)CCCCCCCCCCC(=O)[O-].[Li+] (stereo not drawn),"Octadecanoic acid, 12-hydroxy-, monolithium salt"
63,CNCCC(O)c1ccccc1 (stereo not drawn),3-(Methylamino)-1-phenyl-1-propanol
151,CCN(CC)S(=O)(=O)c1ccc(CCC(=O)O)cc1,3-[4-(diethylsulfamoyl)phenyl]propanoic Acid
48,Cc1ccc(C(=O)C2CC2)cc1,Cyclopropyl p-tolyl ketone
136,CN(C)CC(=N)NO,(Dimethylamino)-N-hydroxyethanimidamide
64,COCCCNC(=O)CC#N,2-cyano-N-(3-methoxypropyl)acetamide
146,CSCc1ccc(C(=O)O)cc1,4-[(Methylsulfanyl)methyl]benzoic acid
-24,CCCCCCC(=O)OCCOCCOCCOC(=O)CCCCCC,Triethylene glycol bis(heptanoate)
97,Cn1ccnc1CC(=O)c1ccccc1,2-(1-Methyl-1H-imidazol-2-yl)-1-phenylethan-1-one
214,Cc1cc(C(=O)O)c(C)n1-c1ccccc1,"2,5-dimethyl-1-phenyl-1h-pyrrole-3-carboxylic acid"
145,Cc1ccc(NC(=O)C(Cl)c2ccccc2)cc1 (stereo not drawn),–
253,O=C(O)c1cc2c(F)cc(F)cc2[nH]1,"4,6-Difluoroindole-2-carboxylic acid"
97.5,Clc1ccc(Cl)c2cnccc12,"5,8-Dichloroisoquinoline"
107,CCc1ccccc1NC(=O)CCl,2-chloro-N-(2-ethylphenyl)acetamide
75,Brc1cccc(-c2nnco2)c1,"2-(3-bromophenyl)-1,3,4-oxadiazole"
186,O=C(O)C(=Cc1ccc(F)cc1)c1cccs1,"2-Thiopheneacetic acid,a-[(4-fluorophenyl)methylene]-"
180,O=C(Nc1ccc2nn(C3CCCC3)nc2c1)c1ccc(Cl)cc1,4-Chloro-N-(2-cyclopentyl-2H-benzotriazol-5-yl)benzamide
162.2,CN(C)CCN(Cc1cccs1)c1ccccn1.Cl,Methapyrilene hydrochloride
224,Cc1nn(C)c(C)c1CC(=O)O,"(1,3,5-Trimethyl-1H-pyrazol-4-yl)acetic acid"
54,CNS(=O)(=O)c1ccccc1N,2-amino-N-methylbenzenesulfonamide
111,Cc1nn(-c2ccccc2)c(C)c1CC(=O)O,"(3,5-dimethyl-1-phenyl-1H-pyrazol-4-yl)acetic acid"
111,CC(C)CCOc1ccc([C@]2(C)N=C(O)N=C2O)cc1,"4-Methyl-4-[4-(3-methylbutoxy)phenyl]-4H-imidazole-2,5-diol"
183,Cc1nc(N)nc2c1CCCC2,"4-methyl-5,6,7,8-tetrahydroquinazolin-2-amine"
121,Cc1ccccc1OCC(=O)NN,2-(2-methylphenoxy)acetohydrazide
175,CN(C)S(=O)(=O)c1ccc(Br)c(C(=O)O)c1,2-Bromo-5-(dimethylsulfamoyl)benzoic acid
145,O=C(O)CCc1ncc(-c2ccc(F)cc2)o1,"3-[5-(4-Fluorophenyl)-1,3-oxazol-2-yl]propanoic acid"

The 4 highest values of melting point among the entries above:

{"smiles": "Nc1nc2ccc(S(N)(=O)=O)cc2s1", "name": "2-Amino-1,3-benzothiazole-6-sulfonamide", "melting point (°C)": "260"}
{"smiles": "O=C(O)c1cc2c(F)cc(F)cc2[nH]1", "name": "4,6-Difluoroindole-2-carboxylic acid", "melting point (°C)": "253"}
{"smiles": "Cc1nn(C)c(C)c1CC(=O)O", "name": "(1,3,5-Trimethyl-1H-pyrazol-4-yl)acetic acid", "melting point (°C)": "224"}
{"smiles": "CCCCCCC(O)CCCCCCCCCCC(=O)[O-].[Li+]", "stereo": "stereo not drawn", "name": "Octadecanoic acid, 12-hydroxy-, monolithium salt", "melting point (°C)": "220"}

Values as listed in the OPERA 2.9 repository of K. Mansouri.